# Measured affinities in a library of Ab-14 heavy chain variants

Data: MIT Lincoln Laboratory AlphaSeq set, Engelhart et al. 2022, doi:10.1038/s41597-022-01779-4, as distributed in FLAb.

Antigen: PDVDLGDISGINAS, a 14-residue peptide of the SARS-CoV-2 spike HR2 region.

The variants keep the light chain, the linker and the frameworks of Ab-14 (scFv order VH, a (GGGGS)3 linker, VL).
VH: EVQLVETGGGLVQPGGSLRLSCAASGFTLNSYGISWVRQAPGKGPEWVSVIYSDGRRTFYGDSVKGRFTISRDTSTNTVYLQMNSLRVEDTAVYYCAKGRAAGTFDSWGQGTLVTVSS
VL: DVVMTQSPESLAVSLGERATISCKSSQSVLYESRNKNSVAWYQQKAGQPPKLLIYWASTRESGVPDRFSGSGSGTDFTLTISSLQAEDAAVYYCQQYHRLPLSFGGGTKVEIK

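Phage display of a naive human antibody library on the peptide gave the parent. The library (AAYL49) carries one to three amino acid substitutions per variant, with no insertions or deletions. AlphaSeq pools MATa yeast showing the antibodies with MATalpha yeast showing the peptide. The frequency of each diploid, read from paired DNA barcodes, reflects how well the two displayed proteins bind. Read counts were normalised to the haploid input and turned into Kd by a linear fit to BCL2-family pairs of known affinity, for each replicate. There are three technical replicates.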

Substitutions are numbered in sequence along the VH above, starting at 1 (not Kabat).
This list gathers variants with a substitution at Y52 (VH, numbered from residue 1).
Values are log10 of the apparent Kd in nM; lower means stronger binding.
Replicates are averaged; those with no signal do not enter the mean.
"nd" marks a missing value. The strain was present, yet no cells mated with the target were sequenced in any replicate, which points to weak or no binding.
As a blank, each scFv also met three strains without target: over library AAYL49, 15% of these pairings were detected, typically at 4.06 and seldom below 2.83.
For reference, the parent read 0.65 as the reference entry and 4.11 (one replicate of three) as a member of this library.

The variant F27Y+Y52E+R100I gave 4.74 (1 of 3 replicates). The variant Y52L+D54N+S63Q gave 4.67 (1 of 3 replicates). With G33Q+Y52N the result was nd (0 of 3 replicates). The variant Y52D gave nd (0 of 3 replicates). The variant Y52F showed 1.28 (3 of 3 replicates).

The variant Y52P+R100W gave nd (0 of 3 replicates). For Y52P, the assay gave nd (0 of 3 replicates). The variant I51R+Y52M gave nd (0 of 3 replicates). The variant Y52D+G99K+A101D showed 4.68 (2 of 3 replicates). With N30R+S35D+Y52P the result was nd (0 of 3 replicates).

The variant F27G+Y52C+R57V gave nd (0 of 3 replicates). The variant Y52I+V64L gave nd (0 of 3 replicates). The variant S35M+Y52K+R100A gave 3.52 (1 of 3 replicates). The variant Y52S+V64P+D106L gave nd (0 of 3 replicates). For S31W+Y52F, the assay gave nd (0 of 3 replicates).

The variant Y52W showed nd (0 of 3 replicates). With Y52D+G61T+G103I the result was nd (0 of 3 replicates). With Y52H the result was 3.17 (3 of 3 replicates). For S31K+Y52Q, the assay gave 5.38 (2 of 3 replicates). For L29P+Y52P+R57P, the assay gave nd (0 of 3 replicates).

For Y52A+D54E+V64M, the assay gave nd (0 of 3 replicates). With V50K+I51M+Y52M the result was 4.67 (1 of 3 replicates). The variant N30D+Y52I+D62K gave nd (0 of 3 replicates). For Y52W+F105D, the assay gave 3.91 (1 of 3 replicates). With I51D+Y52D+S53C the result was nd (0 of 3 replicates).

The variant G26H+T28M+Y52W showed nd (0 of 3 replicates). With G33D+Y52G+S63A the result was nd (0 of 3 replicates). The variant S35F+V50T+Y52G showed 5.92 (1 of 3 replicates). The variant V50G+Y52E+D62M gave 4.26 (3 of 3 replicates). For G26S+F27W+Y52I, the assay gave nd (0 of 3 replicates).

For N30M+Y52A+R100N, the assay gave 3.25 (3 of 3 replicates). The variant F27A+I51A+Y52C gave nd (0 of 3 replicates). The variant N30W+Y52R+K65S showed 3.90 (1 of 3 replicates). With Y52T+Y60V+S63M the result was nd (0 of 3 replicates). For Y52M, the assay gave 3.18 (1 of 3 replicates).

For G33H+Y52T+T104W, the assay gave 3.76 (1 of 3 replicates). With Y52R+G99N+G103T the result was 5.51 (2 of 3 replicates). For Y32V+Y52R+R100M, the assay gave 3.63 (2 of 3 replicates). The variant V50R+Y52C+A101H showed nd (0 of 3 replicates). The variant Y52P+A101N+A102Y gave nd (0 of 3 replicates).

The variant L29I+Y52M+S53G gave 2.86 (1 of 3 replicates). The variant Y52N+G55W+K65V showed nd (0 of 3 replicates). The variant I51A+Y52W+A102I gave nd (0 of 3 replicates). With Y52W+G61P+A101N the result was nd (0 of 3 replicates). For S31L+Y52R+A101V, the assay gave 4.46 (1 of 3 replicates).

The variant Y52Q+R56M+T58H showed 3.40 (1 of 3 replicates). The variant Y52F+F59M+K65I gave 3.75 (2 of 3 replicates). For L29M+Y52W+T58Y, the assay gave 3.23 (1 of 3 replicates). With Y52N+R57Q+A101H the result was 4.86 (2 of 3 replicates). The variant Y52Q+D54T+A102F showed 3.62 (1 of 3 replicates).

The variant S35I+Y52K+F105C gave nd (0 of 3 replicates).